Reference: US7105575B2, “Methods for the treatment of neuro- disorders using aminothiol compounds” (Medimmune Oncology Inc., priority 1997, dated 2006)

Tests used:
[1] = cited from earlier work
[2] = tested on: cisplatin-induced renal failure; experiment: Example 1 case study: amifostine given after cisplatin-induced renal failure; conditions: for overall clinical status (in words) / renal function (in words): amifostine 400 mg iv for 3 days; for renal function (in words): started after renal failure had developed
[3] = tested on: DNA of salmon sperm; conditions: compounds present concomitantly with cisplatin, in vitro; cited from earlier work
[4] = tested on: cisplatin neuropathy; conditions: cited from earlier work
[5] = tested on: cisplatin nephrotoxicity; conditions: amifostine given 30 minutes after cisplatin; cited from earlier work
[6] = tested on: cells; conditions: compounds incubated with cells one hour after cisplatin exposure; cited from earlier work
[7] = tested on: paclitaxel neuropathies and arthralgias/myalgias; conditions: pretreatment with amifostine, escalating doses of paclitaxel; cited from earlier work
[8] = tested on: neurotoxicities; experiment: Example 4 case study: amifostine in MDS patient with neurotoxicities from CHOP chemotherapy; type: in vivo, human
[9] = tested on: severe neurotoxicities of right arm, leg pain; experiment: Example 2 case study: amifostine for chemotherapy-induced neurotoxicities (carboplatinum, vinblastine, methotrexate); type: in vivo, human
Excerpt: The patient who is a survivor of the concentration camps of World War II, was diagnosed with bladder cancer that had metastized to the lungs. They received 3 cycles carboplatinum, vinblastine and methotrexate. While in the concentration camp, the patient suffered damage to their lower legs which caused them constant pain.

[10] = tested on: neurotoxicities / neuropathy
[11] = tested on: V79-B310H Chinese hamster cells; conditions: cited from earlier work
[12] = paclitaxel 135 mg/m^2 iv day 1, cisplatin 100 mg/m^2 intraperitoneally day 2, before amifostine
[13] = 500 mg amifostine over 10 minutes

N.N.[Cl][Pt][Cl] [cisplatin, cis-diamminedichloroplatinum]
potential permanent loss of normal renal function ([1]; nephrotoxicity produced by drugs such as cisplatin (Kemp 1996)): ≥ 50%
patients with myelosuppression ([1]; patients treated with cisplatin): 25–30%
maximum serum creatinine level after administration of cisplatin (FIG. 1) ([2]; FIG. 1, starting level about 1.0 mg/dL): about 5.5 mg/dL
BUN by hospital day 5 after chemotherapy [2, 12]: 39 mg/dL
serum creatinine by hospital day 5 after chemotherapy [2, 12]: 4.9 mg/dL

NCCCNCCSP(=O)(O)O [amifostine, S-2-(3-aminopropylamino)ethyl dihydrogen phosphorothioate]
platination of salmon sperm DNA, co-incubation [3]: caused a decrease in the platination
incidence of cisplatin neuropathies ([4]; pretreatment with amifostine, prospective evaluation (Mollman 1988)): significantly lower incidence of cisplatin neuropathies
occurrence and severity of cisplatin neuropathy ([4]; pretreatment, randomized trial cisplatin and cyclophosphamide±amifostine, advanced ovarian cancer (Kemp 1996)): significantly reduce the occurrence and severity of cisplatin neuropathy
protection from nephrotoxicity [5]: did not protect mice at all from nephrotoxicity
protection from cytostatic effect of cisplatin [6]: neither WR-1065 nor WR-2721 (amifostine) could protect cells
tolerated paclitaxel dose [7]: allowed both higher single doses and cumulative doses of paclitaxel to be administered without the occurrence of dose limiting neuropathies and arthralgias/myalgias
general status on continued treatment ([8]; continues on Ethyol for MDS): doing well
neurotoxicities, patient statement after five weeks ([8]; person, Ethyol 840 mg Monday, Wednesday, Friday each week, neurotoxicities for eight years after CHOP): neurotoxicities were better since receiving amifostine
leg pain two days after infusion [9, 13]: the pain in their legs was getting better
walking ability two days after infusion [9, 13]: able to walk without their cane
pain reported two days after infusion ([9]; person, 500 mg amifostine in 50 cc saline over 10 minutes): no pain for the first time in months
arm pain after subsequent infusions ([9]; subsequent Ethyol infusions): remained without arm pain
leg pain after subsequent infusions ([9]; subsequent Ethyol infusions): The pain in their legs has improved
analgesic need (Duragesic patches) ([9]; subsequent Ethyol infusions, before: 2 patches of 100 mcg/hr): managing with only one Duragesic Patch
neuropathy one month after termination ([10]; after four amifostine treatments): neuropathy remained stable
tolerability of first infusion ([10]; person, amifostine 970 mg in 50 cc saline over 10 minutes, premedicated with Zofran and Decadron): tolerated this treatment without problems
serum creatinine level following treatment with amifostine (FIG. 1) ([2]; FIG. 1, start about 1.0, maximum about 5.5 mg/dL after cisplatin): about 2.8 mg/dL
creatinine at further amifostine dose after follow-up clinic visit ([2]; about 8 days after second discharge, when amifostine 400 mg iv was given again): 2.5 mg/dL
serum creatinine by hospital day 12 / discharge day 13 ([2]; after 3 days of amifostine 400 mg iv, peak 6.0 mg/dL before amifostine): 2.8 mg/dL
serum creatinine approximately 6 months later ([2]; after final 2-week course of amifostine 400 mg, 5 doses): 2.0 mg/dL
overall clinical status (in words) [2]: improvement in their overall clinical status
renal function (in words) [2]: partial recovery of their renal function
renal function (in words) ([2]; listed as Amifostine): partially reversed the toxic renal effects of cisplatin
overall clinical status (in words) ([2]; listed as Amifostine): overall clinical status improved
tolerability ([2]; amifostine 400 mg per day iv on post-cisplatin days 7, 8, 9): tolerated therapy well, with only mild nausea
serum creatinine on day 3 of amifostine therapy ([2]; patient, amifostine 400 mg per day iv on post-cisplatin days 7, 8, 9, peak 6.0 mg/dL before amifostine): 4.6 mg/dL
renal function during readmission (in words) ([2]; readmission, 5 days, amifostine 400 mg iv on hospital day 2): renal function stabilized
tolerability ([2]; readmission, amifostine 400 mg iv once on hospital day 2, ondansetron 24 mg as needed): tolerated the treatment well

NCCCNCCS [WR-1065, S-2-(3-aminopropylamino) ethanethiol]
platination of salmon sperm DNA, co-incubation [3]: caused a decrease in the platination
protection from cytostatic effect of cisplatin [6]: neither WR-1065 nor WR-2721 (amifostine) could protect cells
protection against cis-DDP cytotoxicity ([11]; administered before, during and immediately after cisplatin treatment): protects against cytotoxicity
protection during versus immediately following cisplatin exposure [11]: little if any difference in the magnitude of protection
timing of maximum protection ([11]; presence in cell growth medium relative to cisplatin exposure): maximum protection was obtained when WR-1065 was present in the cell growth medium for 30 minutes prior to exposure

NCCCNCCSSCCNCCCN [WR-33278]
platination of salmon sperm DNA, co-incubation [3]: caused a decrease in the platination
